Values joined by “and” are separate entries in the source; they are usually repeats but may differ in a detail not shown here. Identical values can stand only once.
What was measured:
[1] = biological target: human α7 receptors (Homo sapiens, UniProt P36544); conditions: oocytes, voltage clamp; relative to ACh
[2] = tested on: opioid receptor; conditions: Ki opioid site and sigma site 2 versus α7

Amino acid sequences for entries named in this document (tags omitted). Residues count along the entry.
UniProt P36544, 23-502: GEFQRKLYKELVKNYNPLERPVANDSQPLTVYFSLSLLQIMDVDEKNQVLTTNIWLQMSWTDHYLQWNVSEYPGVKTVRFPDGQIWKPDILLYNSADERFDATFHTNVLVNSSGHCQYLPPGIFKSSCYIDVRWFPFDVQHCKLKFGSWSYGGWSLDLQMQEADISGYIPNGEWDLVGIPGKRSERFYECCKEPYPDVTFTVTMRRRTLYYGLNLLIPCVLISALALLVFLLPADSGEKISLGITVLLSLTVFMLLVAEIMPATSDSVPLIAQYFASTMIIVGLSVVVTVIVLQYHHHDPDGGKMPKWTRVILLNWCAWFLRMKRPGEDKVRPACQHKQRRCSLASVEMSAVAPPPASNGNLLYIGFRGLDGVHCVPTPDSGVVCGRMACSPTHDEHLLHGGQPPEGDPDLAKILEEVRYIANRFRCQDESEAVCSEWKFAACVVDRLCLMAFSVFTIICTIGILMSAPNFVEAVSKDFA

O=C(N[C@@H]1C2CCN(CC2)[C@H]1Cc1cccnc1)c1cc2ccccc2o1 [Compound A, (2S,3R)—N-(2-((3-pyridinyl)methyl)-1-azabicyclo[2.2.2]oct-3-yl)benzofuran-2-carboxamide]
α7 Function Emax (% ACh) [1]: 100 % ACh and 100 ± 7 % ACh
separation from the binding affinity at α7 [2]: greater than 1000 fold

Reference: patent publication US20110059947A1, “ALPHA 7 NICOTINIC AGONISTS AND ANTIPSYCHOTICS” (Targacept, Inc., priority 2008, published 2011)
